Patent US8937193B2, “Apogossypolone derivatives as anticancer agents” (Sanford-Burnham Medical Research Institute, priority 2009, dated 2015)

The chains behind the UniProt entries cited, without tags or fusion partners.
UniProt Q07817, whole entry: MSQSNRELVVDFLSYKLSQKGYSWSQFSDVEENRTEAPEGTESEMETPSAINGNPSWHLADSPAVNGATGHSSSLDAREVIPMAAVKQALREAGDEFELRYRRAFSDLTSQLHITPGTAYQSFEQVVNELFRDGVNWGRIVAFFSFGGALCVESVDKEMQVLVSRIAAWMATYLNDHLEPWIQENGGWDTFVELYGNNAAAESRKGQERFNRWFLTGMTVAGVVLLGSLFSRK

Key:
[1] = system: B6-Bcl-2 transgenic mice (spleen weight); experiment: B6-Bcl-2 transgenic mice spleen weight study; settings: single ip injection of 0.06 and 0.12 mmol/kg
[2] = system: H460 cell line; experiment: ATP-LITE cell viability assay, H460; assay type: cell-based, human; settings: read-out: EC50 H460; Table 5
[3] = system: H1299 cell line; experiment: ATP-LITE cell viability assay, H1299; assay type: cell-based, human; settings: read-out: EC50 H1299; Table 5
[4] = system: RS4;11 cell line; experiment: Annexin V-FITC and propidium iodide apoptosis assay, RS4;11; assay type: cell-based, human; settings: read-out: EC50 RS4;11; Table 5
[5] = system: BP3 cell line; experiment: Annexin V-FITC and propidium iodide apoptosis assay, BP3; assay type: cell-based, human; settings: read-out: EC50 BP3; Table 5
[6] = molecular target: Bcl-XL (Homo sapiens (Human), UniProt Q07817); experiment: Fluorescence polarization competitive binding assay (FPA), Bcl-XL; settings: read-out: IC50 Bcl-XL; Table 6, FPA

Q: How did the toxicity [1] turn out when `CC1=C(C2=C(C)C(=O)c3c(cc(O)c(O)c3CC(C)C)C2=O)C(=O)c2cc(O)c(O)c(CC(C)C)c2C1=O` [Compound 6b, 6,6′,7,7′-tetrahydroxy-5,5′-diisobutyl-3,3′-dimethyl-2,2′-binaphthyl-1,1′,4,4′-tetraone] was run?
A: The toxicity was “did not show any toxicity”.

Q: What does the source list for `CC1=C(C2=C(C)C(=O)c3c(cc(O)c(O)c3CC3CCCC3)C2=O)C(=O)c2cc(O)c(O)c(CC3CCCC3)c2C1=O` [Compound 6c, 5,5′-bis(cyclopentylmethyl)-6,6′,7,7′-tetrahydroxy-3,3′-dimethyl-2,2′-binaphthyl-1,1′,4,4′-tetraone]?
A: EC50 [2]: 0.7 µM; EC50 [3]: 2.3 µM; EC50 [4]: 10.1 µM; EC50 [5]: 12.4 µM

Q: Which toxicity [1] does the source give for `CC1=C(C2=C(C)C(=O)c3c(cc(O)c(O)c3CCC3CCCCC3)C2=O)C(=O)c2cc(O)c(O)c(CCC3CCCCC3)c2C1=O` [Compound 6d, 5,5′-bis(2-cyclohexylethyl)-6,6′,7,7′-tetrahydroxy-3,3′-dimethyl-2,2′-binaphthyl-1,1′,4,4′-tetraone] here?
A: Its toxicity is “did not show any toxicity”.

Q: And the EC50 [3]?
A: Its EC50 is 1.3 µM.

Q: And the EC50 [5]?
A: Its EC50 is 15.5 µM.

Q: Which IC50 [6] does the source give for `CC1=C(C2=C(C)C(=O)c3c(cc(O)c(O)c3C(=O)Cc3ccccc3)C2=O)C(=O)c2cc(O)c(O)c(C(=O)Cc3ccccc3)c2C1=O` [Compound 7, 6,6′,7,7′-Tetrahydroxy-3,3′-dimethyl-5,5′-bis(2-phenylacetyl)-2,2′-binaphthyl-1,1′,4,4′-tetraone] here?
A: The IC50 was 0.36 µM.

Q: And the EC50 [2]?
A: The EC50 was 7.4 µM.

Q: And the EC50 [3]?
A: Its EC50 is 10 µM.

Q: And the EC50 [4]?
A: Its EC50 is over 30 µM.

Q: And the EC50 [5]?
A: Its EC50 is 6.1 µM.

Q: How did the EC50 [3] turn out when `CC1=C(C2=C(C)C(=O)c3c(cc(O)c(O)c3C(=O)NCC(C)c3ccccc3)C2=O)C(=O)c2cc(O)c(O)c(C(=O)NCC(C)c3ccccc3)c2C1=O` (stereo not shown) [Compound 8a, 6,6′,7,7′-Tetrahydroxy-3,3′-dimethyl-1,1′,4,4′-tetraoxo-N^5,N^5′-bis(2-phenylpropyl)-1,1′,4,4′-tetrahydro-2,2′-binaphthyl-5,5′-dicarboxamide] was run?
A: The EC50 was 30 µM.

Q: What about the EC50 [4] of the same compound?
A: Its EC50 is over 30 µM.

Q: With `CCc1ccc(CCNC(=O)c2c(O)c(O)cc3c2C(=O)C(C)=C(C2=C(C)C(=O)c4c(cc(O)c(O)c4C(=O)NCCc4ccc(CC)cc4)C2=O)C3=O)cc1` [Compound 8c, N^5,N^5′-Bis(4-ethylphenethyl)-6,6′,7,7′-tetrahydroxy-3,3′-dimethyl-1,1′,4,4′-tetraoxo-1,1′,4,4′-tetrahydro-2,2′-binaphthyl-5,5′-dicarboxamide] as the compound, how does the EC50 [4] read?
A: The EC50 was over 30 µM.
